According to patent US11999727B2 (Tango Therapeutics, Inc., priority 2020, dated 2024):

Tested on: HAP1 MTAP-deleted cell line
Experiment: SDMA in-cell western assay, HAP1 MTAP-deleted
Assay type: cell-based
Details: IC50 ratio HAP1 MTAP-intact / HAP1 MTAP-deleted
Description: Table 1 also indicates IC50 values in an MTAP-isogenic cell line pair for exemplary compounds in an SDMA in-cell western assay (columns 7-8). HAP1 MTAP-intact is a cell line in which endogenous levels of MTAP are expressed, and HAP1 MTAP-deleted is an MTAP-null cell line.

## Cc1cc(NC(=O)C(=O)N2C[C@@H](C)CC[C@@H]2c2ccc3sc(CCN(C)C)nc3c2)cnc1N (single isomer, unassigned) [Compound 1279]
  MTAP intact/ deleted ratio: C (an IC50 ratio of less than 3 fold)
